Earlier results on 2 substances are cited in PMC8546421, “Molecular modelling of the FOXO4-TP53 interaction to design senolytic peptides for the elimination of senescent cancer cells” (EBioMedicine, 2021).

Chains of the proteins cited; added tags and fusions are not shown. Residues count along the entry.
UniProt P98177, 464-505: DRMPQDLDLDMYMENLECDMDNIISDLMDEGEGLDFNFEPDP
UniProt P98177, 86-206: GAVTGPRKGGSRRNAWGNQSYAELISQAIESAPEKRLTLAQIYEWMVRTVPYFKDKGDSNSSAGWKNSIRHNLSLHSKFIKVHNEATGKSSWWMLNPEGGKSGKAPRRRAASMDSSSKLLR

Data set [1] has as its target TP53 DBD (Homo sapiens) (UniProt P04637).
Data set [2] shares this target. This is another data set of the same source.

Read-outs that look alike come from different tables or passages of the source.

For FOXO4 CR3 (from UniProt P98177), in the data set with TP53 DBD (Homo sapiens) [1], the Kd is 19 µM.
Take FOXO4 FH (from UniProt P98177): the dissociation constant Kd with TP53 DBD (Homo sapiens) [2] is 1000 µM.
